# Rango-impB inh: inhibitors of Rango-importin beta complex formation | Rango CFP/YFP FRET sensor + importin beta, 45 min | actives 0.031% (n = 340,000) | Potency, µM (series often up to 92.2 µM); calls by dose curve; further: nearly all actives have a fitted effect of over 15% in size
#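 Inhibition scored from the CFP 486 nm/YFP 530 nm FRET ratio 45 min after adding 0.125 microM importin beta to 50 nM Rango biosensor preincubated 5 min with compound (room temperature, PBS with DTT, Tween-20, BSA). No-importin wells as positive control.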
# Vif-APOBEC3G blk: blocks the Vif interaction with human APOBEC3G. Q9HC16. HeLa A3G-eYFP + Vif (tagged APOBEC3G with the HIV-1 protein that degrades it), YFP fluorescence, overnight. Potency, µM (top dose mostly 46.1 µM), most hits filed as inhibitors. actives 0.076% (n = 410,000); further: nearly all actives have a fitted effect of over 60% in size
#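 Read-out is eYFP fluorescence (Ex 488/Em 500-530) from Vif-expressing HeLa A3G-eYFP cells; more signal means A3G escaped Vif-mediated degradation. Cells plated overnight, compound pinned in, incubated overnight at 37 deg C.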
# Vif-A3F inh: blocks the Vif interaction with APOBEC3F; HeLa A3F-eYFP + Vif (tagged APOBEC3F with the HIV-1 protein that degrades it), YFP fluorescence increase; actives 0.2% (n = 390,000); Potency, µM (titrated, usually from 46.1 µM); AID 602313; further: nearly all actives have a fitted effect of over 65% in size
#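 HeLa cells stably expressing Vif plus C-terminally eYFP-tagged A3F were seeded, incubated overnight at 37 deg C, dosed with compound, incubated overnight again at 37 deg C. Yellow fluorescence (Ex 488/Em 500-530) reported blocked Vif-mediated A3F-eYFP degradation.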
# Epigenetic reg: derepresses silenced GFP reporter in murine cells | AID 1865 | Potency, µM (series often up to 53.9 µM), most hits filed as activators | actives 0.2% (n = 280,000) | murine LDR cells, GFP reporter derepression, 30 h; further: nearly all actives have a fitted effect of over 60% in size
#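 Murine LDR cells carrying a silenced, genomically integrated CMV-driven GFP reporter were exposed to compound for 30 hours at 37 C. After PBS washes, GFP-positive cells (20–120 um objects) were counted by laser-scanning microplate cytometry.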
# Rango release inh: inhibition of RanGTP-driven Rango-importin beta dissociation; Potency, µM (top dose mostly 46.1 µM); Biochemical FRET Rango-importin beta, RanGTP-induced dissociation; AID 540253; O95149+P62826; actives 0.071% (n = 340,000); calls by dose curve; further: nearly all actives have a fitted effect of over 45% in size
#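 Rango/importin beta premix (0.1/0.25 uM final), PBS + 1 mM DTT + 0.02% Tween-20 + 0.1% BSA; cpd 5 min RT; FRET pre-read; + RanGTP-RCC1 (0.6 uM Ran, 2 mM GTP, 0.2 uM RCC1); 45 min RT; FRET post-read, ex 430, em 486/530 nm.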
# Numbers stand for hits; n = inactive; u = inconclusive; x = no result. This is a sample that favours compounds with a hit; in the whole collection about 0.42% have one here. Unless noted, the call rests on the fitted dose curve; in most records, active means well fitted curve in the direction sought with a large enough effect; inconclusive means small, poorly fitted or top-dose-only effect, or another doubt; inactive means no such curve, though single readings can be large; an effect the other way counts as inactive or inconclusive.
SMILES,Rango-impB inh,Vif-APOBEC3G blk,Vif-A3F inh,Epigenetic reg,Rango release inh
Cc1ccc2c(c1)S/C(=C/c1ccc[n+](C)c1)N2CCO,u,u,u,n,n
CCCCN1/C(=C/c2ccc3ccccc3[n+]2CC)Sc2ccccc21,46.1µM,u,u,3.16µM,n
CCN1/C(=C/c2ccc3cc(C)ccc3[n+]2C)Sc2ccc3sccc3c21,u,n,u,10µM,u
CCN1/C(=C/c2ccc3ccccc3[n+]2CC)C=Cc2ccccc21,u,u,12.6µM,u,n
CCN1/C(=C/c2ccc3cc(C)ccc3[n+]2CC)Sc2cc(C)ccc21,u,n,u,2.82µM,u
CC(=O)Nc1ccc(S(=O)(=O)O)c2cc(S(=O)(=O)O)c(N=Nc3ccc(N=Nc4ccc(S(=O)(=O)O)cc4)c4ccc(S(=O)(=O)O)cc34)c(O)c12,x,n,x,x,x
CCCCOc1ccc(S(=O)(=O)Nc2cccc(-c3ccc(N4CCOCC4)nn3)c2)cc1,x,n,n,n,x
CCN(CC)CCCNc1ccc2ncn3c4ccc(O)cc4c(=O)c1c23,u,u,22.4µM,x,u
N#Cc1c(NC(=O)/C=C/C(=O)O)sc2c1CCN(Cc1ccccc1)C2,u,u,25.1µM,x,u
CC(=O)Nc1sc2c(c1C#N)CCN(Cc1ccccc1)C2,u,n,n,x,u
N#Cc1c(C(F)(F)F)cc(-c2ccco2)nc1SCc1ccccn1,36.6µM,u,25.1µM,u,n
CSc1nnc(N2C(=O)C(O)=C(C(=O)c3ccco3)C2c2ccccc2F)s1 (stereo not given),u,n,n,x,u
CCCSc1nnc(N2C(=O)C(O)=C(C(=O)c3ccco3)C2c2ccccc2F)s1 (stereo not given),u,u,3.16µM,x,u
CCN(CC)c1ccc(/C=C/c2cc(-c3ccccc3)c3ccccc3n2)cc1,n,u,u,3.16µM,n
CN(C)c1ccc(/C=C/c2cc(/C=C/c3ccc(N(C)C)cc3)c3ccccc3n2)cc1,x,2.82µM,x,x,x
O=C(C[N+]12CCCc3cccc(c31)CCC2)c1ccc2ccccc2c1,x,n,x,x,x
N=C1S/C(=C\c2ccc(-c3cccc(Cl)c3)o2)C(=O)N1c1nccs1,u,n,25.1µM,u,n
O=C1OC(c2cccs2)=N/C1=C\c1ccc(-c2cccc(Cl)c2)o1,n,n,n,n,n
Oc1[nH]c(N=C2N=c3ccccc3=N2)c2ccccc12,u,n,n,12.6µM,u
Cc1ccc2c(c1)=N/C(=N\c1[nH]c(O)c3ccccc13)N=2,x,n,n,x,x
O=C1Nc2ccc(Br)cc2C1(O)c1ccccc1 (stereo not given),n,n,n,x,n
O=C1Nc2ccc(Br)cc2C12NNc1ccccc1O2 (stereo not given),u,u,u,17.8µM,u
COc1ccc(N=Cc2c(O)n(-c3ccc(OC)cc3)c(=O)c3ccccc23)cc1,u,n,11.2µM,u,u
Cc1cc(/C=C/c2ccccc2)nc2ccccc12,x,n,x,x,x
Cc1c(C(=O)N2CCCCCC2)c(S(=O)(=O)Nc2ccc(OC(F)(F)F)cc2)c(C)n1C,x,n,n,n,x
SMILES,Rango-impB inh,Vif-APOBEC3G blk,Vif-A3F inh,Epigenetic reg,Rango release inh
CCN(CC)CCNC(=O)c1ccc2c(c1)NC(=O)C(CS(=O)(=O)Cc1ccc(F)cc1Cl)N2 (stereo not given),x,n,n,n,x
CC(Oc1ccccc1)C(=O)NNC(=O)c1ccccn1 (stereo not given),n,n,n,n,n
C/C(=N\NC(=O)C(C)Oc1ccc([N+](=O)[O-])cc1)c1ccccn1 (stereo not given),n,n,n,15.8µM,n
C(=C\c1ccnc2ccccc12)/c1ccc(N2CCNCC2)cc1,x,n,x,x,x
CCc1nn2c(=O)cc(COC(=O)c3ccccc3NC(=O)c3cccs3)nc2s1,x,n,n,n,x
CCCCCCc1cc2cc(-c3nnc(-c4ccc(C)cc4)o3)c(=O)oc2cc1O,x,u,u,2.24µM,x
CCCCCCc1cc2cc(C(=O)OCC)c(=O)oc2cc1O,u,n,n,n,u
Cn1nnnc1SCCNCc1cc(Br)ccc1OCc1ccccc1Cl,x,n,12.6µM,n,x
Cc1ccc(C)c(N2CCN(C(=O)c3c(C)oc4nc(C)nc(N5CCOCC5)c34)CC2)c1,x,n,n,n,x
CC1(C)CC(=O)CC(=NCC(=O)O)C1,u,n,n,n,25.9µM
O=c1c(/C=C(\O)c2ccc(F)cc2)nc2ccccc2n1-c1ccccc1,u,n,u,12.6µM,u
Cc1cccc(Cn2cnc3c(cnn3C(C)(C)C)c2=O)c1F,x,n,x,x,x
O=S(=O)(Nc1cccc2nsnc12)c1ccccc1,29.1µM,n,n,u,n
Cc1cc(C)c(S(=O)(=O)Nc2cccc3nsnc23)c(C)c1,n,n,n,n,n
